Experimental data as given in US20260347351A1.

Protein sequences, listed by entry. Tags and fused reporters are not part of them.
UniProt P0C1Q2, whole entry: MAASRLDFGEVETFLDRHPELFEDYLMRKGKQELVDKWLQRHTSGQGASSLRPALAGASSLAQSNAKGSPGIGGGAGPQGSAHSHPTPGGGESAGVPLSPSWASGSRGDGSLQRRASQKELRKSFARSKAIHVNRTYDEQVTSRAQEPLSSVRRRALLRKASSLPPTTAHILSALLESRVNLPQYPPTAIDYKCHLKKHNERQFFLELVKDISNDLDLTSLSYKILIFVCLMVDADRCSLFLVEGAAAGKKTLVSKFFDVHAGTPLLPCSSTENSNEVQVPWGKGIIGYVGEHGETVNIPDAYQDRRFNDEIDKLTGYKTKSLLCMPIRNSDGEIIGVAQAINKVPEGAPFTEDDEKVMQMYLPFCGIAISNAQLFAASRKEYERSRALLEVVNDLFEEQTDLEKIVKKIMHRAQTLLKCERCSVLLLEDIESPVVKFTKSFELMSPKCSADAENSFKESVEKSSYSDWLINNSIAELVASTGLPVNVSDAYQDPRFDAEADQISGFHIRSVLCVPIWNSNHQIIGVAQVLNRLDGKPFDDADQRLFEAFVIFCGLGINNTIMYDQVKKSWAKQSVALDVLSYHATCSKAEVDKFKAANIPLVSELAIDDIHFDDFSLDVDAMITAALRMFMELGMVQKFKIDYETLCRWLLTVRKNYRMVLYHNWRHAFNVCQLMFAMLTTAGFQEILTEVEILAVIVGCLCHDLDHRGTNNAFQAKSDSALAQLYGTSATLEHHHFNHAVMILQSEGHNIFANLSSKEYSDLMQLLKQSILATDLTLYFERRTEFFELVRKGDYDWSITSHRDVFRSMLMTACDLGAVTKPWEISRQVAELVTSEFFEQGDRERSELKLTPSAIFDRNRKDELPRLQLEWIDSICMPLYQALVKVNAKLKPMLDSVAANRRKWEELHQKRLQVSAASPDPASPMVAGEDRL
UniProt Q9HCR9, whole entry: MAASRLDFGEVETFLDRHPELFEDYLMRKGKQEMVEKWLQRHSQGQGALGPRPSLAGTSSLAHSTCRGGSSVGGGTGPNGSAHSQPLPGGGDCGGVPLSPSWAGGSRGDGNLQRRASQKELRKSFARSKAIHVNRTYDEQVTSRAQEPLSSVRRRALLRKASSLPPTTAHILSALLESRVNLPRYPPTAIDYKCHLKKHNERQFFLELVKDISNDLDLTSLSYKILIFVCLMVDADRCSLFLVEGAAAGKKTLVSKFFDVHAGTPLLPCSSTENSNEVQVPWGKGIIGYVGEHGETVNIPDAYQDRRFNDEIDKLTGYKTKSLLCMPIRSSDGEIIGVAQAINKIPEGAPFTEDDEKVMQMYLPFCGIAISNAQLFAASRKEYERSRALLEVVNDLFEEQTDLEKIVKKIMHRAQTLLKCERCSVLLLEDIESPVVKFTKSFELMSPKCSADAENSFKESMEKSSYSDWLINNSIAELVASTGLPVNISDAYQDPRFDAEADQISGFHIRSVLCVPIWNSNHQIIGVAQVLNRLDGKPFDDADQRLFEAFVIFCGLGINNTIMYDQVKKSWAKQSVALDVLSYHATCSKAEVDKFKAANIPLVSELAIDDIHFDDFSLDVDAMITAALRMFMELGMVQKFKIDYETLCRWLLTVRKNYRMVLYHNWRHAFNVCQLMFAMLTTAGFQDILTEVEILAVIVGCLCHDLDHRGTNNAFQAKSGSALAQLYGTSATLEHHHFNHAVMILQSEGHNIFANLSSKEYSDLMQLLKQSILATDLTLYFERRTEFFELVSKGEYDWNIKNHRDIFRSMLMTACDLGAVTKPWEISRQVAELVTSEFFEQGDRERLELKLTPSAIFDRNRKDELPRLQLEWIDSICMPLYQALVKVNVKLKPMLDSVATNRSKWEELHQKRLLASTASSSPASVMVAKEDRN

Legend:
[1] = Microsomal metabolic stability (human and mouse)
mPDE11A4 = mPDE11A4 (Mus musculus, UniProt P0C1Q2); experiment: Reversal of aging-like punctate accumulations of EmGFP-mPDE11A4 in HT-22 hippocampal cells; details: HT-22 cells overexpressing EmGFP-mPDE11A4
[2] = Metabolite identification from microsomal incubation (LCMS/MS)
PDE11A4 [3] = target: T1, PDE11A4 (Homo sapiens, UniProt Q9HCR9); experiment: In vitro PDE11A4 enzyme inhibition assay (Ba(OH)2 precipitation method); details: biochemical assay
PDE11A4 [4] = target: T1, PDE11A4; experiment: Cell-based cAMP- and cGMP-PDE activity in HT-22 cells transfected with human PDE11A4
Lipophilicity = format: physicochemical
[5] = Kinetic aqueous solubility, pH 7.4; format: physicochemical
CYP3A4, CYP2D6, CYP2C9 = experiment: CYP inhibition profile (CYP3A4, CYP2D6, CYP2C9); format: in vitro ADME, human

In the case of `CCCSc1nc2c(c(=O)n1-c1ccccc1)SCC2` [BC11-38], the “microsomal stability (in words)” value [1] is reported as “metabolically unstable”.

For `CCN(CC)C(=O)c1cc(-c2ccnn2C)nc2c1c(C)nn2-c1ccccc1`, the “reversal of aging-like accumulations of mPDE11A4” value (mPDE11A4) was “able to reverse these aging-like accumulations of mPDE11A4” and the site of metabolism [2] was “the diethyl amide was identified as a primary site for oxidative transformation”.

For `CCN(CC)C(=O)c1cc(-c2ccnn2C)nc2c1c(C(F)F)nn2-c1ccccc1`, the “enzymatic potency (in words)” value (PDE11A4 [3]) was “measurably more potent in the biochemical assay compared to 14b”, the “efficacy on cyclic nucleotides in cells (in words)” value (PDE11A4 [4]; cAMP and cGMP, relative to tadalafil) was “significant improvement in efficacy compared to 1 for both cAMP and cGMP” and the EC50 (PDE11A4 [4]; read-out: EC50 (μM) cAMP, cAMP-PDE activity, average of four independent experiments) was 2.4 µM. The EC50 (PDE11A4 [4]; read-out: EC50 (μM) cGMP, cGMP-PDE activity, average of four independent experiments) was 1.7 µM.

With `Cc1ccccc1Nc1ncnc2c1c(-c1ccccc1)cn2-c1ccc(F)cc1` the “microsomal stability (in words)” value [1] was “good metabolic stability” and the “lipophilicity (in words)” value (Lipophilicity) was “highly lipophilic”.

In the case of `O=c1nc2sc3ccccc3n2c(=O)n1-c1ccccc1`, the “water solubility (in words)” value [5] is reported as “good water solubility”, the “CYP profile (in words)” value (CYP3A4, CYP2D6, CYP2C9) is reported as “favorable CYP profile” and the “microsomal stability (in words)” value [1] is reported as “generally favorable metabolic stability in human and mouse microsomes”.

In the case of `CCN(CC)C(=O)c1cc(-c2cccs2)nc2c1c(C)nn2-c1ccccc1C`, the “water solubility (in words)” value [5] is reported as “good water solubility” and the “microsomal stability (in words)” value [1] is reported as “rapid oxidative metabolism”.

In the case of `[2H]C([2H])([2H])C([2H])([2H])N(C(=O)c1cc(-c2ccnn2C)nc2c1c(C(F)F)nn2-c1ccccc1)C([2H])([2H])C([2H])([2H])[2H]`, the site of metabolism [2] is reported as “the deuterated alkyl groups on the amide” and the “microsomal stability (in words)” value [1] is reported as “small improvement in microsomal stability”.

Like-named read-outs stand apart in the source and are kept apart here.
